Measurements taken from ChEMBL document CHEMBL1629448, “Identification and synthesis of novel inhibitors of acetyl-CoA carboxylase with in vitro and in vivo efficacy on fat oxidation” (J Med Chem, 2010).

What was measured:
Acetyl-CoA carboxylase 1 = Acetyl-CoA carboxylase 1 (Rattus norvegicus, UniProt P11497); test: Inhibition of N-terminal His-tagged rat recombinant ACC1 expressed in high five insect cells by ATP consumption assay
Acetyl-CoA carboxylase 2 = Acetyl-CoA carboxylase 2 (Homo sapiens, UniProt O00763); test: Inhibition of N-terminal His-tagged human recombinant ACC2 expressed in high five insect cells by ATP consumption assay

| Structure (SMILES) | IC50 (Acetyl-CoA carboxylase 1) [nM] | IC50 (Acetyl-CoA carboxylase 2) [nM] |
| --- | --- | --- |
| O=C(c1c2ccccc2cc2ccccc12)N1CCC(N2CCC[C@@H](C(=O)N3CCOCC3)C2)CC1 | 590 |  |
| CC(=O)NC(C)CCc1ccc(Oc2ccc(OC(C)C)cn2)cc1 (configuration not stated) |  | 200 |
